These results are taken from patent US9051270B2, “Pyridone amides as modulators of sodium channels” (Vertex Pharmaceuticals Incorporated, priority 2013, dated 2015).

By UniProt entry, the sequences of proteins in these tests, tags left out.
UniProt Q9Y5Y9, whole entry: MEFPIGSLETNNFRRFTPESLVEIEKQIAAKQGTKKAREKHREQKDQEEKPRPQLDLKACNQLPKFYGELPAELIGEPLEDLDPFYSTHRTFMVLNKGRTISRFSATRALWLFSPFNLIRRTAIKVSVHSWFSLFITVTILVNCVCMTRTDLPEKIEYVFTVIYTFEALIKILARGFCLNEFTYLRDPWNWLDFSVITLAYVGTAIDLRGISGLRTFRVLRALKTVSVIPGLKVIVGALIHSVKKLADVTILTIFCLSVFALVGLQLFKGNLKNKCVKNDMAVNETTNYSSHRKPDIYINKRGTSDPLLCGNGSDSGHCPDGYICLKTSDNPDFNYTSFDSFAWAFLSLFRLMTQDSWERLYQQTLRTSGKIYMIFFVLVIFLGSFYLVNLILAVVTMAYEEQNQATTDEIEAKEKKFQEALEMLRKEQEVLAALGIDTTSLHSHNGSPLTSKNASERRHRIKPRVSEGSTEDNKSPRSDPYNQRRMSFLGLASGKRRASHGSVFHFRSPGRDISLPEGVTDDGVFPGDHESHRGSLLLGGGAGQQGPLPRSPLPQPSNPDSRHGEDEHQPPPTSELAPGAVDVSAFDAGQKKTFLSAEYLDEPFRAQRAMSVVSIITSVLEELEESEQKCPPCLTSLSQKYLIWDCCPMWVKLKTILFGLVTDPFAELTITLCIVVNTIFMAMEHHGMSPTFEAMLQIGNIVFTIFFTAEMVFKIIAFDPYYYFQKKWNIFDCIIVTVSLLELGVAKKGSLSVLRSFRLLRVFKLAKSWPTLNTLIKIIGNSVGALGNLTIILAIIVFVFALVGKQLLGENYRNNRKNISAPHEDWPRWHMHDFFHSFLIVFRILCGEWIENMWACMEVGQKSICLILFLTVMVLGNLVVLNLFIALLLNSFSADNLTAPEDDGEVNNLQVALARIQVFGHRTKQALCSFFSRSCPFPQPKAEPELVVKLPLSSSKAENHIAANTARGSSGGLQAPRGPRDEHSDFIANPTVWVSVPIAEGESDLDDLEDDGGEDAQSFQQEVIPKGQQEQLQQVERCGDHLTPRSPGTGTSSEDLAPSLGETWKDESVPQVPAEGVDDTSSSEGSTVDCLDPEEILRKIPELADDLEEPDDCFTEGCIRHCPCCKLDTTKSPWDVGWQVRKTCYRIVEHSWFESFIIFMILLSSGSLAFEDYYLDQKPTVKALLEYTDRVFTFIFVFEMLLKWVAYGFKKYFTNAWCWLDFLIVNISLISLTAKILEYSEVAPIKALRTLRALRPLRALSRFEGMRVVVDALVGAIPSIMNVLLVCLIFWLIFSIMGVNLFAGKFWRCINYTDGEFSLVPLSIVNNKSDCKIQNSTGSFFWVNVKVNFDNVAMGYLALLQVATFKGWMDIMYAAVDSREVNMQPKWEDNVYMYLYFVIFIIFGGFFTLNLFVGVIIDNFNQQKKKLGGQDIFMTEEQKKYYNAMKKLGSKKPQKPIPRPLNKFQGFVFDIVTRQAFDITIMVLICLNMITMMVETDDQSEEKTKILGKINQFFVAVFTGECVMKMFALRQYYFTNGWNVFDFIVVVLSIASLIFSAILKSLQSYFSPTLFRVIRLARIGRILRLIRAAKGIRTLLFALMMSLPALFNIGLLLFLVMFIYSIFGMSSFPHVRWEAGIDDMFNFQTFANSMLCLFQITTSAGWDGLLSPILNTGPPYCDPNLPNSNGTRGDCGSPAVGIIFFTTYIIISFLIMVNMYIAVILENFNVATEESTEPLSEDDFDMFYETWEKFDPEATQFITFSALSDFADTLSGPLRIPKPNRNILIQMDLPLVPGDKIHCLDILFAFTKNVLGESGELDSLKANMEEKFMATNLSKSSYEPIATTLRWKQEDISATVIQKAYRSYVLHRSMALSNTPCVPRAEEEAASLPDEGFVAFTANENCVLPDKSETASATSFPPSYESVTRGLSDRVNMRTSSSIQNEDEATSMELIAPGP

The target of the experiment is human Nav1.8 (Homo sapiens (Human), UniProt Q9Y5Y9). In words: E-VIPR optical membrane potential assay with electrical stimulation. The format is cell-based. The note with it: HEK cells expressing human Nav1.8. The text has this:
Sodium channels are voltage-dependent proteins that can be activated by inducing membrane voltage changes by applying electric fields. […] The instrument comprises a microtiter plate handler, an optical system for exciting the coumarin dye while simultaneously recording the coumarin and oxonol emissions, a waveform generator, a current- or voltage-controlled amplifier, and a device for inserting electrodes in well. Under integrated computer control, this instrument passes user-programmed electrical stimulus protocols to cells within the wells of the microtiter plate.
24 hours before the assay on E-VIPR, HEK cells expressing human Nav1.8 were seeded in 384-well poly-lysine coated plates at 15,000-20,000 cells per well. […]
7) Read Plate on E-VIPR. […]
Data was analyzed and reported as normalized ratios of emission intensities measured in the 460 nm and 580 nm channels. […]
The data was further reduced by calculating the initial (Ri) and final (Rf) ratios. […] The response to the stimulus R=Rf/Ri was then calculated and reported as a function of time.
Control responses were obtained by performing assays in the presence of a compound with the desired properties (positive control), such as tetracaine, and in the absence of pharmacological agents (negative control). Responses to the negative (N) and positive (P) controls were calculated as above. […]

Each structure is given as a SMILES string.

The IC50 is the point on the concentration scale where inhibition reaches its midpoint. A high value points to lower potency. Consider `Cc1cc(F)ccc1Oc1cc(C(F)(F)F)ccc1C(=O)Nc1cc[nH]c(=O)c1` [Compound 10, 2-(4-fluoro-2-methylphenoxy)-N-(2-oxo-1,2-dihydropyridin-4-yl)-4-(trifluoromethyl)benzamide], for which inhibition was half-maximal at 14 nM (IC50).
